This data set in a line: Solubility of the PEGylated human amylin. Format: physicochemical. Conditions: calculated in the peptide moiety basis.

“PEGylated human amylin: human amylin monoconjugated at the N-terminal Lys1 region with 5 kDa methoxyl polyethylene glycol succinimidyl carbonate (mPEGsc5k) (KCNTATCATQRLANFLVHSSNNFGAILSSTNVGSNTY; one methoxy-PEG 5 kDa (from mPEG succinimidyl carbonate) in the N-terminal region, aimed at an amino group of Lys1; C-terminal amide; disulfide bridge between C2 and C7)”: the solubility result is “over 10 mg/mL”.

The values above are taken from publication PMC4598023 (PLoS ONE, 2015).
